{
  "source": "patent US20220089721A1",
  "target": "Programmed Death Ligand-1 (PD-L1) (human) (UniProt Q9NZQ7)",
  "experiment": "cell-based or functional assay",
  "data": [
    {"substance": "TPP-3615, anti-PD-L1 huIgG2 antibody cloned using the variable domains of Atezolizumab", "values": [
      {"measurement": "IFNg [pg/ml], absolute mean, TC + HCC/1 µg/ml FLU pep + 30 µg/ml antibody (isotype TPP-1238: 787.3)", "value": 888, "unit": "pg/mL"},
      {"measurement": "IFNg [pg/ml], isotype corrected, FluM1 T cells + HCC2935, single agent, experiment 1", "value": 70.7, "unit": "pg/mL"},
      {"measurement": "IFNg [pg/ml], isotype corrected, FluM1 T cells + HCC2935, single agent, experiment 2", "value": 42, "unit": "pg/mL"},
      {"measurement": "IFNg [pg/ml], isotype corrected, FluM1 T cells + HCC2935, single agent, experiment 3", "value": 41.9, "unit": "pg/mL"},
      {"measurement": "IFNg [pg/ml], isotype corrected, FluM1 T cells + HCC2935, single agent, experiment 4", "value": 26.3, "unit": "pg/mL"},
      {"measurement": "IFNg [pg/ml], isotype corrected, FluM1 T cells + HCC2935, single agent, experiment 5", "value": 46.8, "unit": "pg/mL"},
      {"measurement": "IFNg [pg/ml], isotype corrected, FluM1 T cells + HCC2935, single agent, experiment 6", "value": 76.1, "unit": "pg/mL"},
      {"measurement": "IFNg [pg/ml], isotype corrected, FluM1 T cells + HCC2935, single agent, experiment 7", "value": -26.3, "unit": "pg/mL"},
      {"measurement": "IFNg [pg/ml], isotype corrected, FluM1 T cells + HCC2935, single agent, mean of n = 7", "value": 39.6, "unit": "pg/mL"}
    ]}
  ]
}
